Earlier results in US7838561B2, “Method for preventing or treating cardiac hypertrophy” (Wisconsin Alumni Research Foundation, priority 2004, dated 2010).

Test system: RARs

Structure (SMILES): Cc1ccc(C2=CCC(C)(C)c3ccc(C(=O)Nc4ccc(C(=O)O)cc4)cc32)cc1
- Receptor Specificity: RARαβγ
